Only a part is listed here, and it is no random draw. Records with an inconclusive call do not appear. Calls of active or inactive are those of the source. Calls follow the shape of the dose curve; as a rule, active = well fitted inhibition curve with a large enough effect; inconclusive = small, poorly fitted or top-dose-only effect, or effect the other way; inactive = flat fitted curve, though single readings scatter.
% is scaled to controls: 0 for no effect and ±100 for the full control effect; potency is read from the fitted curve at half-maximal effect.

The nature of this assay: qHTS screen for small molecules that inhibit ELG1-dependent DNA repair in human embryonic kidney (HEK293T) cells expressing luciferase-tagged ELG1. Also: nearly all actives have a fitted effect of over 55% in size. Particulars: HEK293T ELG1-luciferase reporter, luminescence, 16 h, DNA damage induced by 5-fluorouridine; series mostly up to 46.1 µM; activity change, negative = inhibition: at the top concentration. (In general: qHTS replaces the single test concentration by a dilution series.)
Turning to `COc1ccccc1OP(C)(=O)Nc1ccccc1Br` (stereo not drawn), the “activity change, negative = inhibition” value is inactive: 8.92%.

`CC(C)(C)c1ccc(OP(C)(=O)O)cc1`: the “activity change, negative = inhibition” value is inactive: 19.1%.

Take `CP(=O)(Nc1ccc(Cl)cc1)Oc1ccc(F)cc1` (stereo not drawn): the “activity change, negative = inhibition” value is inactive: -1.96%.

On to `CCN(CC)CC(O)COC(=O)C(O)(c1ccccc1)C1CCCCC1` (stereo not drawn), for which the “activity change, negative = inhibition” value was inactive: -0.402%.

Take `COc1ccc(OP(C)(=O)Nc2ccc(Br)cc2)cc1` (stereo not drawn): the “activity change, negative = inhibition” value was inactive: -7.72%.

In the case of `COc1ccccc1OP(C)(=O)Nc1c(C)n(C)n(-c2ccccc2)c1=O` (stereo not drawn), the “activity change, negative = inhibition” value is inactive: 1.02%.

For `O=C(OCCCN1CCCC1)C(O)(c1ccccc1)C1CCCCC1` (stereo not drawn), the “activity change, negative = inhibition” value is inactive: -5.47%.

On to `CP(=O)(Oc1ccccc1)N1CCOC1=O` (stereo not drawn), for which the “activity change, negative = inhibition” value is inactive: 1.01%.

`CCc1ccc(OP(C)(=O)Nc2cccnc2)cc1` (stereo not drawn): the “activity change, negative = inhibition” value was inactive: -2.19%.

With `CP(=O)(OC12CC3CC(CC(C3)C1)C2)OC12CC3CC(CC(C3)C1)C2`, the “activity change, negative = inhibition” value is inactive: -2.18%.

As to `CP(=O)(Nc1ccc(Cl)cc1Cl)Oc1ccccc1` (stereo not drawn), the “activity change, negative = inhibition” value was inactive: -4.3%.

For the compound `CP(=O)(OCCOc1ccccc1)OCCOc1ccccc1`, the “activity change, negative = inhibition” value was inactive: -9.87%.

`Cc1cc(C)cc(OP(C)(=O)Nc2cccc(C(F)(F)F)c2)c1` (stereo not drawn): the “activity change, negative = inhibition” value was inactive: 22.7%.

For the compound `COc1ccccc1OP(C)(=O)Nc1ccc(C)c(C)c1` (stereo not drawn), the “activity change, negative = inhibition” value is inactive: 4.39%.

For `COc1ccc(OP(C)(=O)Nc2ccccc2Br)cc1` (stereo not drawn), the “activity change, negative = inhibition” value is inactive: 3.38%.

Turning to `Cc1c(NP(C)(=O)Oc2ccc(C(C)C)cc2)c(=O)n(-c2ccccc2)n1C` (stereo not drawn), the “activity change, negative = inhibition” value is inactive: 4.76%.

For `CP(=O)(Nc1ccccn1)Oc1ccccc1` (stereo not drawn), the “activity change, negative = inhibition” value is inactive: 5.14%.

In the case of `COc1ccccc1OP(C)(=O)Nc1ccc(C)cc1C` (stereo not drawn), the “activity change, negative = inhibition” value is inactive: 0.657%.

As to `CCc1ccc(OP(C)(=O)O)cc1`, the “activity change, negative = inhibition” value is inactive: 3.63%.

For the compound `COc1ccccc1OP(C)(=O)Nc1ccc(Br)cc1` (stereo not drawn), the “activity change, negative = inhibition” value is inactive: 0.422%.

In the case of `COc1ccc(OP(C)(=O)Nc2ccccn2)cc1` (stereo not drawn), the “activity change, negative = inhibition” value is inactive: -1.03%.

Take `CN(C)CCOC(=O)C(O)(c1ccccc1)C1CCCC1` (stereo not drawn): the “activity change, negative = inhibition” value was inactive: 4.79%.

Consider `O=C(OCCN1CCN(CCOCc2ccccc2)CC1)C(O)(c1ccccc1)c1ccccc1`, for which the “activity change, negative = inhibition” value was inactive: 3.04%.

For `CP(=O)(Nc1ccccc1F)Oc1ccccc1` (stereo not drawn), the “activity change, negative = inhibition” value was inactive: 11.2%.

Regarding `CC(C)c1ccc(OP(C)(=O)Nc2ccc(SC(F)(F)F)cc2)cc1` (stereo not drawn), the “activity change, negative = inhibition” value was inactive: -15.9%.

`CCN(CC)CCCOC(=O)C(O)(c1ccccc1)C1CCCCC1` (stereo not drawn): the “activity change, negative = inhibition” value is inactive: 0.319%.

Consider `CP(=O)(Nc1ccccc1)Oc1ccc(F)cc1` (stereo not drawn), for which the “activity change, negative = inhibition” value was inactive: 11%.

Turning to `CCCCCOc1ccc(NP(C)(=O)Oc2ccc(Cl)cc2Cl)cc1` (stereo not drawn), the “activity change, negative = inhibition” value was inactive: 5.14%.

For the compound `CCOC(=O)c1ccc(NP(C)(=O)Oc2ccc(F)cc2)cc1` (stereo not drawn), the “activity change, negative = inhibition” value was inactive: -5.89%.

Turning to `COc1ccc(OP(C)(=O)Nc2ccc(SC(F)(F)F)cc2)cc1` (stereo not drawn), the “activity change, negative = inhibition” value was inactive: -2.72%.

For the compound `O=[N+]([O-])c1ccc(OP2(=O)COCCO2)cc1` (stereo not drawn), the “activity change, negative = inhibition” value was inactive: -6.6%.

Take `COc1ccc(OP(C)(=O)Nc2cccc(Br)c2)cc1` (stereo not drawn): the “activity change, negative = inhibition” value is inactive: 11.1%.

Take `CN(C)CCOC(=O)C(O)(c1ccccc1)C1CCCCC1` (stereo not drawn): the “activity change, negative = inhibition” value is inactive: 15.6%.

Turning to `COc1ccc(NP(C)(=O)Oc2ccccc2OC)cc1` (stereo not drawn), the “activity change, negative = inhibition” value is inactive: 7.59%.

With `CP(=O)(Nc1ccc2c(c1)OCCO2)Oc1ccccc1` (stereo not drawn), the “activity change, negative = inhibition” value was inactive: 11.5%.

In the case of `Cc1ccccc1NP(C)(=O)Nc1ccccc1C`, the “activity change, negative = inhibition” value is inactive: 8.99%.

`CCOP(C)(=S)SCC(=O)NC(C)(CC)C(=O)O` (stereo not drawn): the “activity change, negative = inhibition” value was inactive: 16.1%.

Take `Cc1nc2ccc3ccccc3c2s1.O=[N+]([O-])c1cc([N+](=O)[O-])c(O)c([N+](=O)[O-])c1`: the “activity change, negative = inhibition” value was inactive: 10.7%.

`O=[N+]([O-])c1cc([N+](=O)[O-])c(-n2nnc3ccccc32)c([N+](=O)[O-])c1`: the “activity change, negative = inhibition” value is inactive: 10.5%.

With `COc1ccccc1OP(C)(=O)Nc1c(C)cccc1C` (stereo not drawn), the “activity change, negative = inhibition” value is inactive: -15.5%.

Turning to `CN1CCCCC1COC(=O)C1(O)c2ccccc2CCc2ccccc21` (stereo not drawn), the “activity change, negative = inhibition” value was inactive: 3%.

Take `CCCOc1ccc(NP(C)(=O)Oc2ccc(Cl)cc2)cc1` (stereo not drawn): the “activity change, negative = inhibition” value was inactive: 0.674%.

In the case of `CP(=O)(Nc1ccc(SC(F)(F)F)cc1)Oc1ccccc1` (stereo not drawn), the “activity change, negative = inhibition” value is inactive: -1.67%.

Take `CC1=C2N=C(C=C3N=C(C(C)=C4[N-][C@@](C)([C@@H]5N=C1[C@](C)(CCC(=O)NC[C@@H](C)OP(=O)([O-])O[C@H]1[C@@H](O)[C@@H](n6cnc7cc(C)c(C)cc76)O[C@@H]1CO)[C@H]5CC(N)=O)[C@@](C)(CC(N)=O)[C@@H]4CCC(N)=O)[C@@](C)(CC(N)=O)[C@@H]3CCC(N)=O)C(C)(C)[C@@H]2CCC(N)=O.[C-]#N.[Co+3]`: the Potency is active: 8.2 µM.

Turning to `CC1=NCCc2c1[nH]c1ccccc21.O=[N+]([O-])c1cc([N+](=O)[O-])c(O)c([N+](=O)[O-])c1`, the “activity change, negative = inhibition” value was inactive: -10.3%.

In the case of `Cc1ccc(C)c(NP(C)(=O)Oc2ccccc2)c1` (stereo not drawn), the “activity change, negative = inhibition” value was inactive: -0.322%.

Consider `Cc1cc(C)cc(OP(C)(=O)Nc2ccccn2)c1` (stereo not drawn), for which the “activity change, negative = inhibition” value is inactive: -0.282%.

In the case of `CP(=O)(Nc1cccc(Br)c1)Oc1ccccc1` (stereo not drawn), the “activity change, negative = inhibition” value is inactive: 0.264%.

As to `COc1ccccc1OP(C)(=O)Nc1cccc(Br)c1` (stereo not drawn), the “activity change, negative = inhibition” value is inactive: 1.43%.

`Cc1cc(C)cc(OP(C)(=O)Nc2ccc(C)cc2C)c1` (stereo not drawn): the “activity change, negative = inhibition” value is inactive: 1.86%.

With `CCN(CC)CCCOC(=O)C(O)(c1ccccc1)c1ccccc1`, the “activity change, negative = inhibition” value was inactive: 9.2%.

`COc1ccccc1OP(C)(=O)Nc1ccc(C)cc1` (stereo not drawn): the “activity change, negative = inhibition” value is inactive: 4.23%.

For `Cc1ccc(NP(C)(=O)Oc2ccccc2)c(C)c1` (stereo not drawn), the “activity change, negative = inhibition” value was inactive: -0.858%.

On to `CCOC(=O)c1ccc(NP(C)(=O)Oc2ccccc2)cc1` (stereo not drawn), for which the “activity change, negative = inhibition” value was inactive: 2.2%.

As for `Cc1cc(C)cc(OP(C)(N)=O)c1` (stereo not drawn), the “activity change, negative = inhibition” value is inactive: 8.16%.

For the compound `COc1ccccc1OP(C)(=O)Nc1cc(Cl)ccc1C` (stereo not drawn), the “activity change, negative = inhibition” value is inactive: -7.71%.

For `COc1ccc(OP(C)(=O)Nc2cccc(F)c2)cc1` (stereo not drawn), the “activity change, negative = inhibition” value is inactive: -2.99%.

With `CC(C)(C)c1ccc(OP(C)(=O)Nc2ccc(SC(F)(F)F)cc2)cc1` (stereo not drawn), the “activity change, negative = inhibition” value is inactive: -4.62%.

As to `Cc1cccc(C)c1OP(C)(N)=O` (stereo not drawn), the “activity change, negative = inhibition” value was inactive: -1.63%.

As for `CP(=S)(Nn1cnnc1)Oc1ccccc1` (stereo not drawn), the “activity change, negative = inhibition” value was inactive: -5.31%.

Take `CP(=O)(Nc1ccccc1Br)Oc1ccccc1` (stereo not drawn): the “activity change, negative = inhibition” value is inactive: 17.9%.

Turning to `COc1ccccc1OP(C)(=O)Nc1ccccc1` (stereo not drawn), the “activity change, negative = inhibition” value is inactive: 3.39%.

Take `CCOC(=O)c1ccc(NP(C)(=O)Oc2ccc(OC)cc2)cc1` (stereo not drawn): the “activity change, negative = inhibition” value is inactive: 1.37%.

As for `CP(=O)(Nc1ccc(SC(F)(F)F)cc1)Oc1ccc(Cl)cc1` (stereo not drawn), the “activity change, negative = inhibition” value was inactive: 0.173%.

`CP(=O)(Oc1ccccc1)OC(c1ccccc1)C(F)(F)F` (stereo not drawn): the “activity change, negative = inhibition” value is inactive: -7.2%.

For the compound `CP(=O)(NC(=O)Nc1ccccc1)Oc1ccccc1` (stereo not drawn), the “activity change, negative = inhibition” value is inactive: 8.89%.

As for `CCc1ccc(OP(C)(=O)N2CCN(c3ccc([N+](=O)[O-])cc3)CC2)cc1` (stereo not drawn), the “activity change, negative = inhibition” value was inactive: -26.5%.

`Cc1cc(C)cc(OP(C)(=O)Nc2ccc(SC(F)(F)F)cc2)c1` (stereo not drawn): the “activity change, negative = inhibition” value was inactive: 9.62%.
